Molecular target: 5-hydroxytryptamine receptor 1A (Homo sapiens, UniProt P08908)
Assay: Binding affinity to 5HT1A receptor

Chains of the proteins cited; added tags and fusions are not shown.
UniProt P08908, whole entry: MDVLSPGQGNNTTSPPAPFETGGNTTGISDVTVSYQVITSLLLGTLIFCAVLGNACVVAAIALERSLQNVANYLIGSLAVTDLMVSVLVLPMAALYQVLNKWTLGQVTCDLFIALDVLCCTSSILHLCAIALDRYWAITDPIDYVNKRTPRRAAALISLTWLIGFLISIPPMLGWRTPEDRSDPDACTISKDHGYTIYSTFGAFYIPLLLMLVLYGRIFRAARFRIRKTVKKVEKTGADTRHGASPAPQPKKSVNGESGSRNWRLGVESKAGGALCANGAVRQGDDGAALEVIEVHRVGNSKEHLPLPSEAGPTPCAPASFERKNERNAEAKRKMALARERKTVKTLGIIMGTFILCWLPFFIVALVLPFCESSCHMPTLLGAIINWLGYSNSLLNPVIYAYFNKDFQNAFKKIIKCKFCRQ

Compound: OC(CCN1CCN(c2ccc(Cl)cc2)CC1)c1ccsc1 (stereo unspecified)
- Ki: 2750 nM

Reference: ChEMBL document CHEMBL1781889, “A chemometric study of the 5-HT(1A) receptor affinities presented by arylpiperazine compounds” (Eur J Med Chem, 2008)
